Assay results reported in patent US20220088145A1.

Key:
Assay in all cases: peptide binding to HLA-DR dimer; EC50 ratio (<20 = high affinity, 20-100 = moderate affinity); method not described
[1] = molecular target: HLA-DR7 dimer (DR0701) (human)
[2] = molecular target: HLA-DR15 dimer (DR1501) (human)
[3] = molecular target: HLA-DR11 dimer (DR1101) (human)
[4] = molecular target: HLA-DR3 dimer (DR0301) (human)

Substance	EC50 Ratio [1]	EC50 Ratio [2]	EC50 Ratio [3]	EC50 Ratio [4]
CBir1 p456-475 (peptide)	3.7	0.32	–	–
E. rectale Fla1 p445-464 (peptide)	–	–	0.3	–
R. Intest. Fla1 p408-427 (peptide)	–	–	58	55
